# Apparent affinities of Ab-14 variants for a coronavirus HR2 peptide

Source: Li et al. 2023 (doi:10.1038/s41467-023-39022-2), MIT Lincoln Laboratory and A-Alpha Bio; data file from the FLAb repository.

Target peptide (SARS-CoV-2 spike, HR2 region): PDVDLGDISGINAS

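The variants were designed computationally from a first round of random CDR variants and then made and measured. Group labels follow the data file (Ctrl: baseline library sampled from a position-specific scoring matrix, with some repeated check sequences; En: ensemble of fine-tuned language models; GP: Gaussian process model; HC: hill climbing; Gen: genetic algorithm; Gibbs: Gibbs sampling; a sequence that several methods proposed may carry one label only). In AlphaSeq, yeast of one mating type display the scFv and yeast of the other type display the target. Mating (16 h, 30 °C) was followed by selection of diploids and sequencing of their barcodes. Read counts were normalised to the haploid input and turned into Kd by a linear fit to BCL2-family pairs of known affinity, for each replicate. There are six technical replicates.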

The variants keep the heavy chain, the linker and the frameworks of Ab-14 (scFv order VH, a 15-residue (Gly4Ser)3 linker, VL).
VH: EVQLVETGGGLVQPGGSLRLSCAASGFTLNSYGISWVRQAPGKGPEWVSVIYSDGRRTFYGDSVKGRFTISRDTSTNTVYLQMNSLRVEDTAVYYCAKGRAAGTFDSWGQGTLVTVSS
VL: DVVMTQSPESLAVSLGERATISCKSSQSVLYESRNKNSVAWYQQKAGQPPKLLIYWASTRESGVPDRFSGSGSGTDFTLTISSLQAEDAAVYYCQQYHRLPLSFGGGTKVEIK

Variants are written as CDR1, CDR2 and CDR3 of the light chain (limits as in the source). Parent: KSSQSVLYESRNKNSVA, WASTRES, QQYHRLPLS. This list holds designs with more than six substitutions. Values are log10 of the apparent Kd in nM; lower means stronger binding. A mean of the replicates is given; it leaves out those without a signal. "no signal" marks a missing value. The strain was present, yet no cells mated with the target were sequenced in any replicate, which points to weak or no binding. As a blank, each scFv also met three strains without target: over all light chain designs, 4% of these pairings were detected, typically at 2.64 and seldom below 1.59. In the paper, a design with two or fewer of six values counts as a poor binder. Values of this round are not directly comparable with the first-round values of the same sequences.

KISGYLNKESKIKNNVA, EMVNRES, QQYDRLPLS [En_HC]: 0.46 (6 of 6 replicates).
ALSQSMDMTSRNKNSVA, DLQTREN, QQYHRLPLS [En_HC]: 0.16 (6 of 6 replicates).
KISTQIPEFEMWDNAIA, GATLRET, QHYARLPLS [En_Gibbs]: 1.41 (6 of 6 replicates).
SLAMLLDQVYAYGSNIA, NAAELVV, QQYYRLPLT [En_Gibbs]: no signal (0 of 6 replicates).
KLRQVTGYESYLKNSVA, QTSTRVS, QDYHRLPLS [En_HC]: 1.19 (6 of 6 replicates).
KIGHGLTTESRNNNSVA, QTETRVS, QHYHRLPLS [En_HC]: 0.69 (6 of 6 replicates).
IIDQIMYHGNKHVNSIA, QASQRLN, QQYHHLPLF [En_Gen]: 1.64 (6 of 6 replicates).
MMSQVQGQGTRHRNNVA, QTSTREP, QQYDHLPLI [En_Gen]: 1.06 (6 of 6 replicates).
KIMQTLNYESFNKNSVA, GQETRER, QSYHRLPLS [En_HC]: 1.40 (6 of 6 replicates).
MFSQLFMYGSRNYNSVA, QASTRED, QQYHRLPLI [En_HC]: 0.77 (6 of 6 replicates).
KLASVTGTEKVHGNNVA, EMETREK, QQYNRLPLA [En_Gen]: 0.17 (6 of 6 replicates).
MLWQQMEGFNLVKDAIA, NAKERTG, QQYGRLPLS [En_Gibbs]: 2.27 (2 of 6 replicates).
KISMVLNKESKAGNNVA, EMVNRES, QQYDRLPLS [En_HC]: 0.79 (6 of 6 replicates).
AFSGSHLYESRNQNSVA, SASTREE, QQYHRLPLS [GP_Gibbs]: -0.34 (6 of 6 replicates).
KLSFSNLYWDRNKNSVA, QASTRLM, QQYHRLPLS [GP_Gibbs]: 0.32 (6 of 6 replicates).
KLSQSVEQLSRNKNSVA, QASTREV, QAYHRLPLS [GP_Gibbs]: 0.38 (6 of 6 replicates).
RINVFQNVSTQGNNSIA, GAEQKVH, QQYMRLPLY [En_Gibbs]: 0.79 (6 of 6 replicates).
SLYEAMQMGGLHTSNIA, DANQQMR, QHYNRLPLA [En_Gibbs]: -0.03 (6 of 6 replicates).
HISYSMSHLSRNKNSVA, NQQTRES, QQYHRLPLS [En_HC]: no signal (0 of 6 replicates).
HIQSESEHFGKDHQSMA, DAHCKAA, QQYFRLPLM [En_Gibbs]: 0.50 (6 of 6 replicates).
TLYGLSNSMSKNKNNVA, EMTTRED, QQYDRLPLV [En_Gen]: 0.71 (6 of 6 replicates).
KLSQSVLFWGHAINSVA, EMETREY, QQYDRLPLS [En_HC]: 0.96 (6 of 6 replicates).
KVSEFMKGLMMRTDSIA, DNTTRQQ, QQYDRLPLS [En_Gen]: 2.36 (6 of 6 replicates).
MVTQLMLWGWHAKNSIA, EAQTRVN, QQYDRLPLD [En_Gen]: no signal (0 of 6 replicates).
KISYMGEMFSTNHSSIA, QASTREQ, QQYHRLPLS [En_HC]: 1.06 (6 of 6 replicates).
KFYSAWSGEENNNNNIA, SADTLNH, QQYWTLPLS [En_Gibbs]: -0.36 (6 of 6 replicates).
MMSYGWLYGSRNKRNVA, DQETRES, QQYDRLPLS [En_HC]: 1.09 (4 of 6 replicates).
RVTIISDPYGRNRNNIA, QTSERAH, QQYQMLPLA [En_Gibbs]: -0.55 (6 of 6 replicates).
IIDQIMYHGNKRANSIA, QASERLN, QQYHHLPLF [En_Gen]: 1.12 (6 of 6 replicates).
TVSQVHEMLSHKKNSVA, DMNTRES, QQYDRLPLS [En_HC]: 0.33 (6 of 6 replicates).
RVQLNSGHIDMHWYNIA, SASIRAD, QQYFRLPIF [En_Gibbs]: 0.96 (6 of 6 replicates).
KSSPQVLYEDRNKNSVA, HASTRES, FSYWVLPLS [Ctrl]: 0.10 (6 of 6 replicates).
KSSQSYDYEDRNQNSVA, SASQREH, QQYHRLPLS [GP_Gibbs]: -0.02 (6 of 6 replicates).
KVSQSWLYQSRNSNAVA, EASQREQ, QDYHRLPLS [GP_Gibbs]: 0.83 (6 of 6 replicates).
AVSIEHKENTAYWNAIA, DTSQRNN, QQYDQLPLS [En_Gibbs]: 1.59 (6 of 6 replicates).
KSSPSEPYEDRNFYSVA, HASQRES, QQYHRLPLS [GP_Gibbs]: 0.65 (6 of 6 replicates).
KGQQSQQYESRNWNSVA, NASYRES, QQYHRLPLS [GP_Gibbs]: 2.13 (5 of 6 replicates).
KWDQEVDGQSRNKNSVA, DASTREW, QQYHRLPLS [GP_Gibbs]: -0.12 (6 of 6 replicates).
HITMGMYVHGRYKSNIA, QAETREK, QQYDRLPLI [En_Gen]: 1.12 (6 of 6 replicates).

Top 6 of the variants detected in all replicates, tightest first:

CDR-L1	CDR-L2	CDR-L3	group	log10 Kd (nM), mean	detected
RVTIISDPYGRNRNNIA	QTSERAH	QQYQMLPLA	En_Gibbs	-0.55	6 of 6
KFYSAWSGEENNNNNIA	SADTLNH	QQYWTLPLS	En_Gibbs	-0.36	6 of 6
AFSGSHLYESRNQNSVA	SASTREE	QQYHRLPLS	GP_Gibbs	-0.34	6 of 6
KWDQEVDGQSRNKNSVA	DASTREW	QQYHRLPLS	GP_Gibbs	-0.12	6 of 6
SLYEAMQMGGLHTSNIA	DANQQMR	QHYNRLPLA	En_Gibbs	-0.03	6 of 6
KSSQSYDYEDRNQNSVA	SASQREH	QQYHRLPLS	GP_Gibbs	-0.02	6 of 6